Measured values: US20250171499A1, “PHARMACEUTICAL FORMULATIONS AND METHODS FOR THE TREATMENT OF METABOLIC AND LIVER DISORDERS” (Viking Therapeutics, Inc., priority 2022, published 2025)

Protein sequences, listed by entry. Tags and fused reporters are not part of them. Residues count along the entry.
UniProt P43220, 24-463, species assumed: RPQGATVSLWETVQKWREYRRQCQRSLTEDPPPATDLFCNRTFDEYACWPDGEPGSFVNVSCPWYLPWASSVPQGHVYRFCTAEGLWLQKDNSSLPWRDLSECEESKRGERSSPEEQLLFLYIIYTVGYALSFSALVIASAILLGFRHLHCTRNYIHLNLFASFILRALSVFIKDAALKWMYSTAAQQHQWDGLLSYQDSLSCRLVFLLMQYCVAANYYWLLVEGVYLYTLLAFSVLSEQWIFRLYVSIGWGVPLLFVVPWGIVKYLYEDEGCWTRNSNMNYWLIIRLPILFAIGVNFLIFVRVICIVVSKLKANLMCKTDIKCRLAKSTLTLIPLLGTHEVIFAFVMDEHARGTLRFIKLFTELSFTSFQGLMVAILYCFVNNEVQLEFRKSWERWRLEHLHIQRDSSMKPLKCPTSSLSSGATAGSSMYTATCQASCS

Tests used:
GIP receptor = target: T1, GIP receptor (Homo sapiens, UniProt P48546); assay: Binding assay in the presence or absence of 2% human serum albumin, GIP receptor; conditions: IC50 with 2% HSA to IC50 with 0% HSA
T1 sequence (P48546 22-466): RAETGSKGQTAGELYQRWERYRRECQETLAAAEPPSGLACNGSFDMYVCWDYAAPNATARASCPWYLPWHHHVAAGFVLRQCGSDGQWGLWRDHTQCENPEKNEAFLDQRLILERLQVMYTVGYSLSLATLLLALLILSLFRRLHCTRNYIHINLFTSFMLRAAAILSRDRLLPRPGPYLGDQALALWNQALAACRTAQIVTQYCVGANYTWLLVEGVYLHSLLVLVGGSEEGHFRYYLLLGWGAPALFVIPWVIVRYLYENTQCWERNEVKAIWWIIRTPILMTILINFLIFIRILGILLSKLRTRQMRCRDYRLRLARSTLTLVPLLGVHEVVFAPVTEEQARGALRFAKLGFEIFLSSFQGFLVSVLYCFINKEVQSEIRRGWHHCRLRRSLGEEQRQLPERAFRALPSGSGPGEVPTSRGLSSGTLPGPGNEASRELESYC

GLP-1 receptor = GLP-1 receptor (Homo sapiens, UniProt P43220); conditions: IC50 with 2% HSA to IC50 with 0% HSA

tirzepatide [reference compound]
GIP receptor Ratio of HSA:No HSA (GIP receptor): 5.82
GLP-1 receptor Ratio of HSA:No HSA (GLP-1 receptor): 12.8
